From patent publication US20180371033A1, “THERAPEUTIC PEPTIDES AND METHODS OF USE THEREOF” (priority 2015, published 2018)
Values joined by “and” are separate entries in the source; they are usually repeats but may differ in a detail not shown here. Equal values may be shown once. “Also recorded” adds a separate entry of the source.

Tests used:
[1] = whole brain homogenates of mice dosed intravenously with 14C-labeled peptide
[2] = for Blood (densitometric signal in the heart blood) / Brain (percentage of signal in that tissue compared to the signal detected in the heart blood): 14C-radiolabeled peptide, tail vein injection, kidneys ligated, target three hours circulation; for penetration of the blood brain barrier in comparison with the negative controls: reference level for high penetration: at least 10% diffuse signal in brain versus blood
[3] = assay type: in vivo, mice; conditions: 14C whole body autoradiography
Text: This example describes biodistribution of peptides.
ND indicates the peptide was not detected in that tissue.

[4] = Brain section autoradiography: peptide homing to ventricles and cerebral spinal fluid; assay type: in vivo, Female Harlan athymic nude mice; conditions: 14C signal in sagittal/coronal brain sections, 3 hours after administration
Text: The experiment was done in duplicates.

MDA-MB-231 tumor = assay: Peptide homing to tumors: whole organ fluorescence of Cy5.5 labeled peptides, MDA-MB-231 tumor-bearing mice; assay type: in vivo; conditions: 10 nmol Cy5.5 conjugate, 24 hours, single mouse
Description: (§1) This example describes peptide homing to tumors. A peptide of the disclosure was labeled with a Cyanine 5.5 (Cy5.5) NHS ester near infrared fluorophore under aqueous conditions. Peptides of the disclosure were dissolved to 2 mg/mL in 50 mM sodium bicarbonate, pH 8.3. Cy5.5 NHS ester was dissolved at 10 mg/mL in anhydrous dimethylsulfoxide.
(§2) Approximately 0.1 molar equivalents of dye were added to the aqueous peptide solution at 10 minute intervals with thorough mixing. Analytical HPLC monitored at 214 and 678 nm was used to assess the completion of the reaction. Once complete, the mono-labeled product was purified using semi-preparative HPLC. The presence of a single Cy5.5-conjugated product was confirmed by mass spectrometry.
(§3) Each peptide was chemically conjugated to Cy5.5 at the N-terminus or to a reactive lysine via an active NHS ester on the dye. […] The resulting fluorescence was normalized based on the fluorescence of the solution. The tumors were subcutaneous xenografts of either Colo205 (a human colon cancer cell line), MDA-MB231 (a triple-negative human breast cancer cell line), or U87 (a human glioma cell line), which were implanted in the flank of the mouse.
(§4) At the end of the 24-hour dosing period, mice were euthanized by CO2 asphyxiation. Blood, tumor, muscle, kidney, liver, spleen, and colon tissue were harvested and placed in PBS on ice. The tissue was then scanned on the Odyssey CLx scanner (LI-COR) using the 700 nm channel, 21 micron resolution, and the Auto intensity settings. The signal intensity within a region of interest (ROI) was measured using the Image Studio software version 5.2 (LI-COR). All ROI's were the same size.
TABLE 6 lists whole organ fluorescence quantification data of Cy5.5 labeled peptides of SEQ ID NO: 25, SEQ ID NO: 32, SEQ ID NO: 17, SEQ ID NO: 6, SEQ ID NO: 37, SEQ ID NO: 35, or SEQ ID NO: 36 from MDA-MB231 tumor-bearing Female Harlan athymic mice. Each row in TABLE 6 represents data from a single mouse (signal for each tissue is averaged over 3 ROIs per tissue).

[5] = system: Colo205, MDA-MB231 or U87 tumors; assay: Peptide homing to tumors: summary over Colo205, MDA-MB231 and U87 xenografts; assay type: in vivo; conditions: each tumor (Colo205, MDA-MB231, U87); Cy5.5 conjugates
Description: as §1, §3
At the end of the 24-hour dosing period, mice were euthanized by CO2 asphyxiation. Blood, tumor, muscle, kidney, liver, spleen, and colon tissue were harvested and placed in PBS on ice. The tissue was then scanned on the Odyssey CLx scanner (LI-COR) using the 700 nm channel, 21 micron resolution, and the Auto intensity settings. The signal intensity within a region of interest (ROI) was measured using the Image Studio software version 5.2 (LI-COR). All ROI's were the same size. […]

U87 tumor = assay: Peptide homing to tumors: whole organ fluorescence of Cy5.5 labeled peptides, U87 tumor-bearing mice; assay type: in vivo; conditions: 10 nmol Cy5.5 conjugate, 24 hours, single mouse
Description: as §1, §2, §3, §4
TABLE 7 lists whole organ fluorescence quantification data of peptides of SEQ ID NO: 25, SEQ ID NO: 32, SEQ ID NO: 17, SEQ ID NO: 6, SEQ ID NO: 37, SEQ ID NO: 35, or SEQ ID NO: 36 conjugated to Cy5.5, from U87 tumor-bearing Female Harlan athymic mice. Each row in TABLE 7 represents data from a single mouse (signal for each tissue is averaged over 3 ROIs per tissue).

Colo205 tumor = assay: Peptide homing to tumors: whole organ near-infrared fluorescence of Cy5.5 labeled peptides, Colo205 tumor-bearing mice; assay type: in vivo; conditions: 10 nmol Cy5.5 conjugate, 24 hours, single mouse
Description: as §1, §2, §3, §4
TABLE 5 lists whole organ near-infrared fluorescence quantification data in triplicate of Cy5.5 labeled peptides of SEQ ID NO: 25, SEQ ID NO: 32, SEQ ID NO: 17, SEQ ID NO: 6, SEQ ID NO: 37, SEQ ID NO: 35, or SEQ ID NO: 36 from Colo205 tumor-bearing Female Harlan athymic mice. Each row in TABLE 5 represents data from a single mouse (signal for each tissue is averaged over 3 ROIs per tissue).

[6] = radioactivity signal per area in blood compared to tissue

## GSVGCEECPMHCKGKNANPTCDDGVCNCNV [SEQ ID NO: 55]
[1]
  intact peptide in the brain: present in the brain
[2]
  Blood (densitometric signal in the heart blood): 1838144857.46255
  Brain (percentage of signal in that tissue compared to the signal detected in the heart blood): 6.86%
  penetration of the blood brain barrier in comparison with the negative controls: moderately penetrate the blood brain barrier
[3]
  Adipose (percentage of signal compared to blood in the heart): 6.47%
  Liver (percentage of signal compared to heart blood): 51.65%
  Lower GI (percentage of signal compared to blood in the heart): 9.42%
  Lung (percentage of signal compared to heart blood): 84.67%
  Muscle (percentage of signal compared to blood in the heart): 26.87%
  Upper GI (percentage of signal compared to blood in the heart): 128.14%
[3]; [6]
  Bladder: Low
  Spinal Cord: Low
[3]; value given in words
  Gall bladder (grade): ND (ND indicates the peptide was not detected in that tissue)
  Pancreas (grade): Low
  Reproductive (grade): Low
  Spleen (grade): Low
[4]
  localization of the peptide to specific structures in the brain: migrate specifically to a region, tissue, structure or cells in the brain, potentially the hippocampus, the CSF, the ventricles, the meninges, and/or the rostral migratory stream; also recorded: specific structures in the brain, such as ventricles and CSF

## GSICIPCFTTDHQIARRCDDCCGGRGRGRCYGPQCICR [SEQ ID NO: 36]
MDA-MB-231 tumor
  Tumor/Muscle (ratio of the signal in the tumor to the signal in the muscle): 4.068 and 8.216
MDA-MB-231 tumor; average of 3 ROIs
  Colon (fluorescence signal): 1560000 and 688333.333
  Liver (fluorescence signal): 5186666.67 and 1933333.33
  Muscle (fluorescence signal): 517000 and 125666.67
  Spleen (fluorescence signal): 1683333.33 and 643333.333
  Tumor (fluorescence signal): 2103333.33 and 1032500
[5]
  detection in tumor: detected in each tumor
[2]
  Blood (densitometric signal in the heart blood): 13350663.35
  Brain (percentage of signal in that tissue compared to the signal detected in the heart blood): 9.64%
  penetration of the blood brain barrier in comparison with the negative controls: highly penetrate the blood brain barrier
[2]; mouse with ligated kidneys, 3 hours after administration of 100 nmol radiolabeled peptide
  average brain/blood ratio: 9.64%
U87 tumor
  Tumor/Muscle (ratio of the signal in the tumor to the signal in the muscle): 8.368 and 8.338 and 7.202
U87 tumor; average of 3 ROIs
  Colon (fluorescence signal): 16033333 and 28433333 and 12400000
  Liver (fluorescence signal): 45500000 and 32866667 and 39300000
  Muscle (fluorescence signal): 3166667 and 3470000 and 2180000
  Spleen (fluorescence signal): 11800000 and 6786667 and 7663333
  Tumor (fluorescence signal): 26500000 and 28933333 and 15700000
Colo205 tumor
  Tumor/Muscle (ratio of the signal in the tumor to the signal in the muscle): 7.633 and 6.925 and 7.346
Colo205 tumor; average of 3 ROIs
  Colon (near-infrared fluorescence signal): 11933333 and 10913333 and 12666667
  Liver (near-infrared fluorescence signal): 34466667 and 24366667 and 35333333
  Muscle (near-infrared fluorescence signal): 2506666.7 and 2233333.3 and 2600000
  Spleen (near-infrared fluorescence signal): 11300000 and 10500000 and 14733333
  Tumor (near-infrared fluorescence signal): 19133333 and 15466667 and 19100000
[3]
  Liver (percentage of signal compared to heart blood): 128.72%
  Lower GI (percentage of signal compared to blood in the heart): 19.48%
  Lung (percentage of signal compared to heart blood): 104.62%
  Muscle (percentage of signal compared to blood in the heart): 27.65%
  Reproductive (tract; percentage of signal compared to heart blood): 160.48%
  Upper GI (percentage of signal compared to blood in the heart): 353.31%
